Experiment: Inhibition of Streptococcus pneumoniae NAD-dependent DNA ligase assessed as equilibrium dissociation constant

**Q.** With `NC(=O)c1cc2cc(Br)c(C(F)(F)F)nc2nc1N` as the compound, how does the Kd read?
**A.** 16 nM
